Substrate: Cc1cn([C@H]2C[C@H](n3cc(-c4ccc(F)cc4)nn3)[C@@H](CO)O2)c(=O)[nH]c1=O
Settings: Ureaplasma parvum

B1: Thymidine kinase (Ureaplasma parvum serovar 3 (strain ATCC 700970)), Q9PPP5 (protein)
chain: MAKVNAFSKKIGWIELITGPMFAGKTAELIRRLHRLEYADVKYLVFKPKIDTRSIRNIQSRTGTSLPSVEVESAPEILNYIMSNSFNDETKVIGIDEVQFFDDRICEVANILAENGFVVIISGLDKNFKGEPFGPIAKLFTYADKITKLTAICNECGAEATHSLRKIDGKHADYNDDIVKIGCQEFYSAVCRHHHKVPNRPYLNSNSEEFIKFFKNKKRNKNI
B1 gave a Km of 29 µM.

— ChEMBL document CHEMBL1158545, “3'-(1,2,3-Triazol-1-yl)-3'-deoxythymidine analogs as substrates for human and Ureaplasma parvum thymidine kinase for structure-activity investigations” (Bioorg Med Chem, 2010)
